Experiments:
[1] = molecular target: T1, Cholecystokinin receptor type A (Homo sapiens, UniProt P32238); assay: Displacement of [125I-BDZ-1] from human CCK1R I6.51V, F6.52Y mutant expressed in CHO cells after 60 mins by scintillation counter; assay type: cell-based
[2] = molecular target: Cholecystokinin receptor type A (Homo sapiens, UniProt P32238, M121A); assay: Displacement of [125I-CCK] from human CCK1R M3.32A mutant expressed in CHO cells after 60 mins by scintillation counter; assay type: cell-based
[3] = molecular target: T2, Cholecystokinin receptor type A (Homo sapiens, UniProt P32238, T117V/T118S); assay: Displacement of [125I-BDZ-1] from human CCK1R T3.28V, T3.29S mutant expressed in CHO cells after 60 mins by scintillation counter; assay type: cell-based
[4] = molecular target: T3, Gastrin/cholecystokinin type B receptor (Homo sapiens, UniProt P32239); assay: Partial agonist activity at wild-type human CCK2R expressed in CHO cells assessed as intracellular calcium response by fluorescence analysis; assay type: functional, cell-based
T3 sequence (P32239 whole entry): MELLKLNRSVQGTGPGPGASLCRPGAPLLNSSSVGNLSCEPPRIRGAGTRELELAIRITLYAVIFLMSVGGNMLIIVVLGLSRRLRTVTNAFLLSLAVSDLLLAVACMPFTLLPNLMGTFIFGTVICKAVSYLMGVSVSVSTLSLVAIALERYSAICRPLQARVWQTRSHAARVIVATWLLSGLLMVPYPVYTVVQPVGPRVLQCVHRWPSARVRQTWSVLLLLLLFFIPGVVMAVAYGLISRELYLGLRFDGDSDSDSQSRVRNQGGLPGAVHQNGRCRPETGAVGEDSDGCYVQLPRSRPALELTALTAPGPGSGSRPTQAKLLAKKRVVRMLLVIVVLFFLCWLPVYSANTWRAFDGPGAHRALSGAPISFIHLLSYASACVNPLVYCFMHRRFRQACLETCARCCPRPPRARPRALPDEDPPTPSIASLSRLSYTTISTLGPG

Amino acid sequences for entries named in this document (tags omitted). A change or cut given only in a name is not applied to a line headed by its entry.
UniProt P32238, whole entry, looked up: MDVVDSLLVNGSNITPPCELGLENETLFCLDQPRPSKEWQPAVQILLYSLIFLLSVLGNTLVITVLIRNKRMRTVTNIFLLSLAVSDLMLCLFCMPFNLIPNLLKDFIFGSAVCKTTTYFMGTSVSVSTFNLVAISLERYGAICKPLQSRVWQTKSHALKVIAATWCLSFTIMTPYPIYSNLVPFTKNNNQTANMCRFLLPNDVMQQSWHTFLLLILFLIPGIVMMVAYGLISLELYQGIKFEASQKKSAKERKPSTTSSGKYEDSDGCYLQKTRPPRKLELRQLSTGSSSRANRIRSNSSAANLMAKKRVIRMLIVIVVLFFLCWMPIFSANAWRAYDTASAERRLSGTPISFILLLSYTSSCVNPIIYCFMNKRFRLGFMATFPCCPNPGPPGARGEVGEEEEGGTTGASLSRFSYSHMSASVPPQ
UniProt P32238, whole entry M121A: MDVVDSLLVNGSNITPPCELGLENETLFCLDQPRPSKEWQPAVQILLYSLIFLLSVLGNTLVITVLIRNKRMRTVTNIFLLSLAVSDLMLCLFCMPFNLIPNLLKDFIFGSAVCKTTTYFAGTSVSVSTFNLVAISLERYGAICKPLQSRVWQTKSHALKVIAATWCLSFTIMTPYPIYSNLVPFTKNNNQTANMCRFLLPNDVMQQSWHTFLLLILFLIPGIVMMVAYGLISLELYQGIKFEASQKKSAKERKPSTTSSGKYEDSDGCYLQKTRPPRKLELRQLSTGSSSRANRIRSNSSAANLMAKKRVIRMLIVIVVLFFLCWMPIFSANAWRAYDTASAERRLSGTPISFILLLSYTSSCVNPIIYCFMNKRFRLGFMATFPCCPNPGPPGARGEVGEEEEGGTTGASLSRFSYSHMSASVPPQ
UniProt P32238, whole entry T117V/T118S: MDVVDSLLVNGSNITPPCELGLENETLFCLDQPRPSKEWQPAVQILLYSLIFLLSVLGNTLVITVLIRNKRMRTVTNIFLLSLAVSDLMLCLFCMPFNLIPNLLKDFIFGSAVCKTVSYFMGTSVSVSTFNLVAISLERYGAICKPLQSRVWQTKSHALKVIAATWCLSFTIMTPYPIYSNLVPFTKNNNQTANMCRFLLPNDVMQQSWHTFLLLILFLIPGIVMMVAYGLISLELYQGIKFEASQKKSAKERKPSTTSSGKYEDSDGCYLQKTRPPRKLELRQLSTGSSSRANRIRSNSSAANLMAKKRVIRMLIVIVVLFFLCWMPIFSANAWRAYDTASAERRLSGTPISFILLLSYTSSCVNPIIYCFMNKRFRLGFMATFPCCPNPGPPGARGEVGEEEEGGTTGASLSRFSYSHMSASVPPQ
UniProt P32238, whole entry W326A: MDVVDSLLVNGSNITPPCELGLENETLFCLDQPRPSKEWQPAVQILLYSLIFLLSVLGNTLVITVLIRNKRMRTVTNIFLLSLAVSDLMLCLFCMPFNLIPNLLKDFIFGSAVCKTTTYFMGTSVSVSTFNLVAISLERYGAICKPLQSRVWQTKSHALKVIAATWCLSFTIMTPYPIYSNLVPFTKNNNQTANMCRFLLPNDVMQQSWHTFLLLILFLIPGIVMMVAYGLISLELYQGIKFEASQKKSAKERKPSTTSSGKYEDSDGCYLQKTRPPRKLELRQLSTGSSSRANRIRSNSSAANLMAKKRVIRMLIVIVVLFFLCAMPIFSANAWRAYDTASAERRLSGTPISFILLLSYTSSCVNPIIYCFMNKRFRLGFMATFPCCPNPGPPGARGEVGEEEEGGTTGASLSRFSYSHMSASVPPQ
UniProt P32238, whole entry N98T: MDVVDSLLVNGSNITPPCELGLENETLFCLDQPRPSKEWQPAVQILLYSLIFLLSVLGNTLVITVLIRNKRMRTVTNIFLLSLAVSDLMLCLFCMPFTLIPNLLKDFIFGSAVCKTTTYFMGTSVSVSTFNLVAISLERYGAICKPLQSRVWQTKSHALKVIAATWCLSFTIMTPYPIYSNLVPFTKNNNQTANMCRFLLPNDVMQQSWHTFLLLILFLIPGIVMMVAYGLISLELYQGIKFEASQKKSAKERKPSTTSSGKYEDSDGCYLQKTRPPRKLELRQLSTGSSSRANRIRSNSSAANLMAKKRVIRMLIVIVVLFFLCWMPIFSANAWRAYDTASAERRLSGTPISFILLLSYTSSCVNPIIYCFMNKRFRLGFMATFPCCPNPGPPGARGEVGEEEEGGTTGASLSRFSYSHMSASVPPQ
UniProt P32238, whole entry V125A: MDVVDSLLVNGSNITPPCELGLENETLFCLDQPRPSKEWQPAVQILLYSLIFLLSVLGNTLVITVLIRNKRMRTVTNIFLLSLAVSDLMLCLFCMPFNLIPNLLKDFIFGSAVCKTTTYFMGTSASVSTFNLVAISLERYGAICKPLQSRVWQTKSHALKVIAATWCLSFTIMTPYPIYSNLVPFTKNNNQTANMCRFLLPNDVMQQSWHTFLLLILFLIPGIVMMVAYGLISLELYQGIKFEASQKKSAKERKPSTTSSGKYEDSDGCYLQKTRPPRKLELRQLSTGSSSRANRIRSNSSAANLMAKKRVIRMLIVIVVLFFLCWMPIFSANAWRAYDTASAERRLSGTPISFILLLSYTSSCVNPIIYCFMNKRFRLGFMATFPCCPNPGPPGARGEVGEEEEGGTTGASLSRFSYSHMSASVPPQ
UniProt P30551: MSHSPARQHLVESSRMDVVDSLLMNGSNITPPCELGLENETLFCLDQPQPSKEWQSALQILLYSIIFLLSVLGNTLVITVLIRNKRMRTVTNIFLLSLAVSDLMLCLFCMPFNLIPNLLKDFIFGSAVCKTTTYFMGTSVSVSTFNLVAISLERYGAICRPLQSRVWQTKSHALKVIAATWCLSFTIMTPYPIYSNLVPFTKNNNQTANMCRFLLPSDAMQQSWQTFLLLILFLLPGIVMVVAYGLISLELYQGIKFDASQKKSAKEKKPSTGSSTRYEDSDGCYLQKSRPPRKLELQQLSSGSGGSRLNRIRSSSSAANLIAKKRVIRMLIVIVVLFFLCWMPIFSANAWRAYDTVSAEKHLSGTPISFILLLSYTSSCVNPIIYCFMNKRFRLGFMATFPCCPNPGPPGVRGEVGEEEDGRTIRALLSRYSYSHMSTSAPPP
UniProt P30553: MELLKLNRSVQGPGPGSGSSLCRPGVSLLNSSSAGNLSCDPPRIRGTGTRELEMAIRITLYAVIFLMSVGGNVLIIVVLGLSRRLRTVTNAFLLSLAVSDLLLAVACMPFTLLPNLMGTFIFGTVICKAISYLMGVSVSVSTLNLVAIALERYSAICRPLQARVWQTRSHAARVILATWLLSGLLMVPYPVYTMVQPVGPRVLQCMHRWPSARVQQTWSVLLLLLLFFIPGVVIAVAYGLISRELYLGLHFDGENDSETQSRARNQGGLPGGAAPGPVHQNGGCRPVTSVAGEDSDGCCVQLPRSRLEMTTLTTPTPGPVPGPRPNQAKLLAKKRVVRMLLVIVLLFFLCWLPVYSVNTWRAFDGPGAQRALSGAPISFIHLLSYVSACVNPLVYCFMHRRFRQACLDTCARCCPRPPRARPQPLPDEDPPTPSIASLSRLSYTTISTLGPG

[5] = molecular target: T2, Cholecystokinin receptor type A; assay: Displacement of [125I-CCK] from human CCK1R T3.28V, T3.29S mutant expressed in CHO cells after 60 mins by scintillation counter; assay type: cell-based
[6] = molecular target: T2, Cholecystokinin receptor type A; assay: Agonist activity at human CCK1R T3.28V, T3.29S mutant expressed in CHO cells assessed as intracellular calcium response by fluorescence analysis; assay type: functional, cell-based
[7] = molecular target: Gastrin/cholecystokinin type B receptor (Homo sapiens, UniProt P32239, S131T/V130T); assay: Displacement of [125I-CCK] from human CCK2R V3.28T, S3.29T mutant expressed in CHO cells after 60 mins by scintillation counter; assay type: cell-based
Cholecystokinin receptor = Cholecystokinin receptor (Rattus norvegicus, UniProt P30551+P30553); assay: Displacement of [125I]-BDZ-1 from rat CCK1R Ala-317,321,325 non dimerizing mutant expressed in COS cells after 60 mins by scintillation counter; assay type: cell-based
[8] = molecular target: T1, Cholecystokinin receptor type A; assay: Displacement of [125I-CCK] from human CCK1R I6.51V, F6.52Y mutant expressed in CHO cells after 60 mins by scintillation counter; assay type: cell-based
[9] = molecular target: T1, Cholecystokinin receptor type A; assay: Agonist activity at wild-type human CCK1R expressed in CHO cells assessed as intracellular calcium response by fluorescence analysis; assay type: functional, cell-based
[10] = molecular target: T1, Cholecystokinin receptor type A; assay: Agonist activity at human CCK1R I6.51V, F6.52Y mutant expressed in CHO cells assessed as intracellular calcium response by fluorescence analysis; assay type: functional, cell-based
[11] = molecular target: T4, Cholecystokinin receptor type A (Homo sapiens, UniProt P32238, W326A); assay: Displacement of [125I-CCK] from human CCK1R W6.48A mutant expressed in CHO cells after 60 mins by scintillation counter; assay type: cell-based
[12] = molecular target: T1, Cholecystokinin receptor type A; assay: Agonist activity at human CCK1R N2.61T mutant expressed in CHO cells assessed as intracellular calcium response by fluorescence analysis; assay type: functional, cell-based
[13] = molecular target: Gastrin/cholecystokinin type B receptor (Homo sapiens, UniProt P32239, H376L); assay: Displacement of [125I-CCK] from human CCK2R H7.39L mutant expressed in CHO cells after 60 mins by scintillation counter; assay type: cell-based
[14] = molecular target: Cholecystokinin receptor type A (Homo sapiens, UniProt P32238, N98T); assay: Displacement of [125I-CCK] from human CCK1R N2.61T mutant expressed in CHO cells after 60 mins by scintillation counter; assay type: cell-based
[15] = molecular target: Cholecystokinin receptor type A (Homo sapiens, UniProt P32238, V125A); assay: Displacement of [125I-BDZ-1] from human CCK1R V3.36A mutant expressed in CHO cells after 60 mins by scintillation counter; assay type: cell-based
[16] = molecular target: T3, Gastrin/cholecystokinin type B receptor; assay: Displacement of [125I-CCK] from wild-type human CCK2R expressed in CHO cells after 60 mins by scintillation counter; assay type: cell-based
[17] = molecular target: T4, Cholecystokinin receptor type A; assay: Displacement of [125I-BDZ-1] from human CCK1R W6.48A mutant expressed in CHO cells after 60 mins by scintillation counter; assay type: cell-based

| pIC50 [1] | IC50 [2] | IC50 [3] | EC50 [4] | IC50 [5] | EC50 [6] | IC50 [7] | IC50 (Cholecystokinin receptor) | pIC50 [8] | EC50 ([9]; read-out: EC50) | EC50 ([9]; read-out: pEC50 (converted)) | pEC50 [10] | IC50 [11] | pEC50 [12] | IC50 [13] | IC50 [14] | IC50 [15] | Ki [16] | IC50 [17] | Structure (SMILES) |
| --- | --- | --- | --- | --- | --- | --- | --- | --- | --- | --- | --- | --- | --- | --- | --- | --- | --- | --- | --- |
| 6 | 166 nM | 4.47 nM | 1000 nM | 37.2 nM | 1.38 nM | 209 nM | 25 nM | 7.37 | 1.8 nM | 1.51 nM | 7.38 | 41.7 nM | 9.28 |  |  |  |  |  | CC(C)N(Cc1ccccc1)C(=O)CN1C(=O)[C@@H](Cc2c[nH]c3ccccc23)c2nnc(-c3ccccc3)n2-c2ccccc21 [CE-326597] |
| 6 |  |  |  |  | 0.12 nM | 302 nM | 17.02 nM | 7.15 |  |  | 7.16 |  |  | 7.59 nM | 0.813 nM | 955 nM | 1410 nM | 61.7 nM | Cc1cc(C)cc(C[C@H]2CCCCN2C(=O)CN2C(=O)[C@@H](Cc3n[nH]c4ccccc34)c3nnc(-c4ccccc4)n3-c3ccccc32)c1 |
